Experimental findings from PubChem BioAssay AID1910 (Broad Institute, 2009) are described below.

The entries are a selection whose mix differs from that of the whole data set. Activity calls are given as the source filed them.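 How the source made its calls: active means mean activation of at least 10% of the iron chelator positive control signal, with at least half of replicates also reaching 10%; inconclusive means mean and replicate majority disagree about reaching 10%; inactive means mean and most replicates under 10%.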

The assay in a line: hypoxia response element reporter activation – cell-based, U2OS HRE-luciferase, luminescence, primary screen (AID 1910). To be noted: active compounds read high, screened at 7.5 µM (by protocol), normalized: DMSO 0%, desferrioxamine 100%.
Turning to `Cc1c2non([O-])c-2c(C)[n+](=O)[n+]1[O-]`, the activation was inactive: -0.444%.

Consider `O=C(NC(Sc1ccncn1)C(Cl)(Cl)Cl)c1ccccc1` (stereo not drawn), for which the activation was inactive: -0.554%.

As to `Oc1ccccc1CNc1ccccn1`, the activation was inactive: 0.221%.

Regarding `CC(C)CC(=O)NC(Sc1ccc(Cl)cc1)C(Cl)(Cl)Cl` (stereo not drawn), the activation is inactive: -0.19%.

Take `Nc1cc(N)c2nonc2c1[N+](=O)[O-]`: the activation was inactive: 0.312%.

Take `Clc1ccc(Cl)c(NC2=NCC(CBr)S2)c1` (stereo not drawn): the activation was inactive: -0.213%.

As to `CN1CCCC(OC(=O)C(c2ccccc2)c2ccccc2)C1` (stereo not drawn), the activation was inactive: -1.16%.

Consider `Cc1ccc(OP(=O)(Nc2nccs2)Oc2ccc(C)cc2)cc1`, for which the activation is inactive: -0.908%.

With `COc1ccccc1OP(=O)(Nc1ccc(C)cn1)Oc1ccccc1OC`, the activation was inactive: 0.19%.

For `Cc1ccc(N/C(=N/P(=O)(N2CCOCC2)N2CCOCC2)N2CCOCC2)cc1`, the activation is inactive: -0.0957%.

For the compound `NC(=O)c1cc([N+](=O)[O-])cc([N+](=O)[O-])c1N`, the activation is inactive: -1.11%.

Regarding `Nc1cccc2ccc([As](=O)(O)O)cc12`, the activation is inactive: -1.85%.

As for `CCN(N=Nc1nonc1N)c1nonc1N`, the activation is inactive: 0.029%.

Consider `O=[N+]([O-])c1cc([N+](=O)[O-])c(CCN2CCOCC2)c([N+](=O)[O-])c1`, for which the activation is inactive: 1.1%.

Take `CN(C(=O)Cc1ccc(Cl)c(Cl)c1)[C@H]1CCCC[C@@H]1N1CCCC1`: the activation was inactive: -0.0419%.

With `Cc1ccc(NP(=O)(Oc2ccccc2F)Oc2ccccc2F)nc1`, the activation is inactive: 0.0734%.

As for `CCOP(=O)(Nc1ccccc1)OCC`, the activation is inactive: 0.0526%.

`Cc1cc(SC(NC(=O)c2ccc(F)cc2)C(Cl)(Cl)Cl)ncn1` (stereo not drawn): the activation was inactive: -0.17%.

In the case of `O=P(Nc1nc2ccc(Cl)cc2s1)(c1ccccc1)c1ccccc1`, the activation was inactive: 0.272%.

Take `O=C(O)c1ccccc1[As](=O)(O)O`: the activation is inactive: -0.503%.

Take `CC(=O)Nc1ccc([As](=O)(O)O)cc1`: the activation is inactive: -0.77%.

On to `O=C(O)CNc1ccc([As](=O)(O)O)cc1`, for which the activation is inactive: -1.33%.

`O=[N+]([O-])c1cccc(NC2=NCC(CBr)S2)c1` (stereo not drawn): the activation was inactive: -0.077%.

For `O=[N+]([O-])c1ncn(CCn2ncnc2[N+](=O)[O-])n1`, the activation was inactive: -0.563%.

For the compound `CC(C)(C)C(=O)NC(Sc1ccncn1)C(Cl)(Cl)Cl` (stereo not drawn), the activation is inactive: -0.404%.

`O=C(Nc1cc([As](=O)(O)O)ccc1O)c1ccccc1`: the activation was inactive: -3.01%.

With `CC1CCN(C(=O)Oc2c(Cl)cc(Cl)c3cccnc23)CC1`, the activation is inactive: -0.0681%.

Turning to `CN(C)C(=O)OCCc1n(C)cc[n+]1C`, the activation is inactive: -0.158%.

Regarding `CC(C)=N/N=C(\N)N[N+](=O)[O-]`, the activation was inactive: -0.246%.

As for `CCN(/C(=N/P(=O)(N1CCOCC1)N1CCOCC1)N1CCOCC1)c1ccc(OC)cc1`, the activation was inactive: 0.0401%.

In the case of `C[N+]1=C2C=CC=CC=C2SC12C([N+](=O)[O-])=CC([N+](=O)[O-])=C[C-]2[N+](=O)[O-]` (stereo not drawn), the activation is inactive: 1.76%.

`Nc1ccc([As](=O)(O)c2ccc(N)cc2)cc1`: the activation was inactive: -0.416%.

Regarding `O=[N+]([O-])c1cc([N+](=O)[O-])c(CCNc2ccccc2)c([N+](=O)[O-])c1`, the activation is inactive: -0.643%.

As to `CCc1nc2c(n1)c1c(non1O)c1c2no[n+]1[O-]`, the activation was inactive: 4.3%.

Take `Cc1ccc(NP(=O)(Oc2ccccc2)Oc2ccccc2)nc1`: the activation was inactive: 0.508%.

Take `CC(=O)N1C2C3N(C(C)=O)C1C1N(C(C)=O)C(C(N1C(C)=O)N3C(C)=O)N2C(C)=O`: the activation was inactive: 0.101%.

Turning to `O=[N+]([O-])c1cccc2n[nH]nc12`, the activation was inactive: -2.21%.

`COc1ccc(C2=NCC(CBr)S2)cc1` (stereo not drawn): the activation was inactive: -0.261%.

As to `c1nnnn1CCn1cnnn1`, the activation was inactive: 0.377%.

Turning to `O=P(Nc1nccs1)(c1ccccc1)c1ccccc1`, the activation was inactive: -0.067%.

As for `CC(C)C(=O)NC(Sc1ccccc1)C(Cl)(Cl)Cl` (stereo not drawn), the activation is inactive: -0.0639%.

With `O=C(OC1CN2CCC1CC2)c1cccc(Cl)c1` (stereo not drawn), the activation was inactive: -0.152%.

Turning to `Nc1ccc([As](=O)(O)c2ccc([N+](=O)[O-])cc2)cc1`, the activation was inactive: -0.278%.

Take `C(Cc1nn[nH]n1)Cc1nn[nH]n1`: the activation is inactive: 0.0121%.

On to `O=[As](O)(c1ccccc1)c1ccc(O)cc1`, for which the activation is inactive: -0.241%.

Regarding `O=[N+]([O-])c1ncn(CCn2cnc([N+](=O)[O-])n2)n1`, the activation was inactive: -0.156%.

For `CC(=O)NC(SC(=S)N(C)C)C(Cl)(Cl)Cl` (stereo not drawn), the activation was inactive: 0.0694%.

In the case of `O=[N+]([O-])c1ccc(O)c(/C=N/Nc2ccc([N+](=O)[O-])cc2[N+](=O)[O-])c1`, the activation is inactive: 0.139%.

With `C[C@H]1OP(=O)(Oc2ccccc2)[C@H](O)[C@H](O)[C@H]1N=[N+]=[N-]` (stereo partly drawn), the activation was inactive: 0.0986%.

Take `O=P(Nc1nc2ccccc2s1)(c1ccccc1)c1ccccc1`: the activation was inactive: 0.416%.

For the compound `CN(C)C1(CNC(=O)c2ccc(Cl)c(S(N)(=O)=O)c2)CCCCC1`, the activation is inactive: 1.09%.

On to `O=P(Nc1ccccn1)(c1ccc(Br)cc1)c1ccc(Br)cc1`, for which the activation is inactive: -0.15%.

For `CN(C)C(=O)Oc1noc2ccccc12`, the activation was inactive: -0.288%.

In the case of `Cc1ccccc1OP(=O)(Nc1ccccn1)Oc1ccccc1C`, the activation was inactive: -0.0794%.

Turning to `CCC(=O)N1C2C3N(C(=O)CC)C1C1N(C(=O)CC)C(C(N1C(=O)CC)N3C(=O)CC)N2C(=O)CC`, the activation is inactive: -0.0106%.

`O=C(OC1CN2CCC1CC2)c1ccccc1` (stereo not drawn): the activation is inactive: -10.8%.

For `Cc1ccc(OP(=O)(Nc2ccccn2)Oc2ccc(C)cc2)cc1`, the activation was inactive: 0.47%.

With `CC(=O)NC(SC(=S)N(CC(C)C)CC(C)C)C(Cl)(Cl)Cl` (stereo not drawn), the activation was inactive: 0.0515%.

Take `COC(=O)c1cc2c(s1)N=C(c1ccccc1)N(C)P2(=O)N1CCOCC1` (stereo not drawn): the activation was inactive: -0.192%.

In the case of `CCOC(=O)NC(Sc1ccccc1)C(Cl)(Cl)Cl` (stereo not drawn), the activation is inactive: -0.152%.

As for `Cc1ccc(NP(=O)(Oc2cccc(C)c2)Oc2cccc(C)c2)nc1`, the activation was inactive: 0.795%.

Consider `c1ccc(-c2nn[nH]n2)c(-c2nn[nH]n2)c1`, for which the activation was inactive: -0.387%.

For the compound `O=C(NC1CCS(=O)(=O)C1)NP(=S)(Oc1ccccc1)Oc1ccccc1` (stereo not drawn), the activation is inactive: -0.211%.

As to `CCNC(=S)/N=C(\N)N[N+](=O)[O-]`, the activation was inactive: -0.428%.

As to `CC(=O)Nc1ccc(Oc2c([N+](=O)[O-])cc([N+](=O)[O-])cc2[N+](=O)[O-])cc1`, the activation is inactive: -0.185%.

For the compound `CC(=O)Nc1ccc([As](=O)(O)O)c(O)c1`, the activation was inactive: -0.158%.

With `C[C@@H]1C=CCP(=O)(Oc2ccccc2)O1` (stereo partly drawn), the activation was inactive: 0.132%.

For `C[C@H]1OP(=O)(Oc2ccccc2)C[C@@H]2O[C@@H]21` (stereo partly drawn), the activation was inactive: -0.207%.

For the compound `CC(=O)c1ccc(N2CC2c2ccncc2)cc1` (stereo not drawn), the activation is inactive: -1.28%.

Take `CC(C)(C)C(=O)NC(Sc1ccccc1)C(Cl)(Cl)Cl` (stereo not drawn): the activation was inactive: -0.928%.

Take `CCOc1ccc(C2=NCC(CBr)S2)cc1` (stereo not drawn): the activation is inactive: 1.12%.

Regarding `O=P1(Nc2nc3ccc(Cl)cc3s2)COc2ccccc2O1` (stereo not drawn), the activation was inactive: 0.666%.

`CCOP(=O)(Nc1cccc2ccccc12)OCC`: the activation was inactive: -0.0828%.

Take `COc1cc(C2NCCC3(OCCO3)C2(C)C)cc(OC)c1OC` (stereo not drawn): the activation was inactive: 0.0109%.

On to `Nc1cccc2c([As](=O)(O)O)cccc12`, for which the activation is inactive: -0.266%.

For the compound `Cc1ccc(NCCc2c([N+](=O)[O-])cc([N+](=O)[O-])cc2[N+](=O)[O-])cc1`, the activation was inactive: 0.883%.

Regarding `CCCOP(=S)(Nc1nc(N)cc(=O)[nH]1)OCCC`, the activation was inactive: -0.971%.

With `O=[As](O)(c1cccc(O)c1)c1cccc(O)c1`, the activation was inactive: -0.456%.

As to `Cc1cccc(OCC(=O)OC2CN3CCC2CC3)c1` (stereo not drawn), the activation was inactive: -0.123%.

With `O=C(OC1CN2CCC1CC2)c1ccc(Cl)cc1` (stereo not drawn), the activation was inactive: -0.654%.

`CS(=O)(=O)c1ccc(Cl)c(NC(=O)COC(=O)C(O)(c2ccccc2)c2ccccc2)c1`: the activation was inactive: -0.396%.

Consider `COc1cc(C(=O)NCC2(N3CCOCC3)CCCCC2)cc(Cl)c1OC(C)C`, for which the activation is inactive: -0.0417%.

For the compound `O=[As](O)(O)c1cccnc1`, the activation was inactive: -0.104%.

On to `CCOP1(=S)c2c(C)nn(CCC#N)c2N=C(c2ccc(F)cc2)N1C` (stereo not drawn), for which the activation is inactive: -0.55%.

Turning to `CN(C(=O)Cc1ccccc1)[C@@H]1CC[C@]2(CCCO2)C[C@H]1N1CCCC1`, the activation was inactive: -0.216%.

`N#CCCN(C(=O)COC(=O)C(O)(c1ccccc1)c1ccccc1)c1ccc(F)cc1`: the activation was inactive: -0.841%.

On to `CN(C(=O)Cc1ccc(Cl)c(Cl)c1)[C@H]1CC[C@@]2(CCCO2)C[C@@H]1N1CCCC1`, for which the activation was inactive: 0.49%.

For `CN(C)C(=O)c1cc([N+](=O)[O-])cc2c1-c1c(cc([N+](=O)[O-])cc1[N+](=O)[O-])C2=O`, the activation is inactive: -1.77%.

With `O=[N+]([O-])c1ccc2c(c1)nnn2O`, the activation was inactive: -0.842%.

As to `NC(=O)Nc1ccc([As](=O)(O)O)cc1`, the activation is inactive: -1.37%.

Regarding `O=C(O)COc1ccc([As](=O)(O)O)cc1[N+](=O)[O-]`, the activation is inactive: -0.163%.

Regarding `Nc1ccccc1[As](=O)(O)c1ccccc1`, the activation is inactive: 0.202%.

In the case of `O=P(Nc1nccs1)(c1ccccc1)c1nc2ccccc2s1` (stereo not drawn), the activation is inactive: -0.296%.

In the case of `O=P(Nc1nccs1)(Oc1ccccc1)Oc1ccccc1`, the activation was inactive: -0.193%.

On to `CCOP1(=S)c2c(C)nn(CCC#N)c2N=C(c2ccccc2F)N1C` (stereo not drawn), for which the activation was inactive: 0.00528%.

As for `CS(=O)(=O)c1cc([N+](=O)[O-])c2no[n+]([O-])c2c1`, the activation is inactive: 1.65%.

On to `Nc1cccc([As](=O)(O)c2ccccc2)c1`, for which the activation was inactive: -0.151%.

Turning to `O=P1(Nc2ccc(Br)cn2)COc2ccccc2OC1`, the activation was inactive: -0.143%.
